# Binding of CDR-mutated scFvs to a peptide of the spike HR2 region

Reference: Li et al. 2023, doi:10.1038/s41467-023-39022-2. File: FLAb, binding data.

Target: peptide PDVDLGDISGINAS, taken from heptad repeat 2 (HR2) of SARS-CoV-2 spike.

Parent scFv Ab-14: VH joined to VL by the linker GGGGSGGGGSGGGGS. Changes lie in the heavy chain CDRs alone.
VH: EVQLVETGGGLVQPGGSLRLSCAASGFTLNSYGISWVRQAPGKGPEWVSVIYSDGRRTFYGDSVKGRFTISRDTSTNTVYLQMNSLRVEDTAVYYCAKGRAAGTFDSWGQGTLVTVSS
VL: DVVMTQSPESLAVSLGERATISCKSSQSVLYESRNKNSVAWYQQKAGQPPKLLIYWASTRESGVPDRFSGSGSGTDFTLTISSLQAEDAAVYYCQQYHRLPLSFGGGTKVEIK

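The starting antibody came from a phage panning campaign against this peptide. Designed CDR sequences, proposed from the first random library and measured here. Their group label is 14H_En_Gen (En: ensemble of fine-tuned language models; Gen: genetic algorithm). In AlphaSeq, yeast of one mating type display the scFv and yeast of the other type display the target. Mating (16 h, 30 °C) was followed by selection of diploids and sequencing of their barcodes. A regression on co-assayed BCL2-family reference pairs converts the normalised counts of each replicate to an apparent Kd. There are six technical replicates.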

Each variant is given by its three heavy chain CDRs, as the data file delimits them; those of the parent are GFTLNSYGIS, VIYSDGRRTFYGDSVK, GRAAGTFDS.
The read-out is the apparent dissociation constant on a log10 scale (nM): the lower, the stronger.
Where no diploid with the target was found in that replicate, the entry reads "n.d.": below detection, most likely a poor binder, though not proof of it.
The parent sequence was in this pool as ten entries: three were never detected, three once, and four in most replicates, with averages from 0.34 to 2.37.

CDR-H1	CDR-H2	CDR-H3	replicates, log10 nM	control signals
GFDLNEYGIS	VIYADGMRTAYTDSVK	GNQAGTFDV	-0.66 / -0.86 / -0.47 / -0.69 / -0.74 / -0.39	0 of 18
GFDLNEYGIS	VIYADGVRKAYADDVK	GNVAGTFDL	-0.80 / -0.55 / -0.45 / -0.63 / -0.56 / -0.07	0 of 18
GFDLNEYGIS	VIYADGVRTSYADSVK	GNVAGTFDM	-0.37 / -0.33 / -0.77 / -1.04 / -0.63 / -0.59	0 of 18
GFDLNEYGIS	VIYADGMRTMYADSVK	GNVAGTFDL	-0.32 / 0.36 / -0.06 / -0.47 / 0.66 / -0.24	0 of 18
GFDLNEYGIS	VIYADGKRSAYADSVK	GENAGTFDV	0.60 / 0.09 / -0.36 / -0.19 / 0.04 / -0.31	0 of 18
GFDLEDYGIS	VIYADGMRTAYADSVK	GNVAGTFDM	-0.37 / -0.40 / -0.42 / -0.34 / -0.22 / -0.28	1 of 18 (1.55)
GFDLNEYGIS	VIYADGMRTFYADSVK	GNQAGTFDT	0.02 / -0.66 / -0.81 / -0.73 / -0.65 / -0.30	0 of 18
GFDLNEYGIS	VIYADGMRTAYADDVK	GENAGTFDM	-0.50 / -0.93 / -1.02 / -0.63 / -1.13 / -0.51	0 of 18
GFDLNEYGIS	VIYADGMRTVYADSVK	GEVAGTFDQ	-0.52 / -0.76 / -0.50 / -0.94 / -0.68 / -0.45	1 of 18 (2.56)
GFDLDEYGIS	VIYADGMRTAYTDSVK	GNQAGTFDT	-0.13 / -0.16 / -0.46 / -0.25 / -0.32 / 0.02	1 of 18 (2.22)
GFDLNEYGIS	VIYADGMRTAYANSVK	GNVAGTFDT	0.47 / 0.44 / 0.19 / -0.04 / 0.02 / 0.14	1 of 18 (2.59)
GFDLNEYGIS	VIYADGRRTAYSDNVK	GNVAGTFDV	-0.16 / -0.14 / -0.49 / -0.51 / -0.78 / -0.38	0 of 18
GFDLNEYGIS	VIYADGVRTAYADSVK	GQVAGTFDQ	-0.46 / -0.63 / -0.76 / -0.74 / -0.79 / -0.44	1 of 18 (1.72)
GFDLNEYGIS	VIYADGRRTAYSDSVK	GANAGTFDV	-0.77 / -1.07 / -0.65 / -1.16 / -1.13 / -0.83	0 of 18
GFDLNEYGIS	VIYADGMRTAYQDSVK	GNVAGTFDL	-0.02 / -0.22 / -0.53 / -0.41 / -0.09 / 0.00	0 of 18
GFDLNEYGIS	VIYADGKRTAYADSVK	GNVAGTFVQ	0.07 / -0.86 / -0.42 / -0.45 / 0.58 / 0.05	0 of 18
GFDLNEYGIS	VIYADGVRTAYADSVK	GNHAGTFDV	-0.18 / 0.00 / -0.61 / -0.60 / -0.33 / -0.07	0 of 18
GFDLNEYGIS	VIYADGMRTAYADTVK	GNVAGTFDQ	0.09 / -1.08 / -0.50 / -0.39 / -0.55 / 0.09	0 of 18
GFDLNEYGIS	VIYADGVRTAYADDVK	GEVAGTFDM	-0.42 / -0.68 / -0.74 / -0.52 / -0.80 / -0.45	1 of 18 (1.44)
GFDLDEYGIS	VIYADGMRTAYADDVK	GKNAGTFDV	-0.20 / -0.27 / 0.23 / -0.16 / 0.03 / 0.07	0 of 18
GFDLNEYGIS	VIYADGKRTAYSDSVK	GNTAGTFDQ	-0.47 / -0.51 / -0.42 / -0.65 / -0.13 / -0.26	0 of 18
GFDLNEYGIS	VIYADGVRTAYADSVK	GTVAGTFDV	-0.29 / -0.57 / -0.50 / -0.64 / -0.59 / -0.49	1 of 18 (4.42)
GFDLNEYGIS	VIYADGVRTAYADSVK	GGNAGTFDT	-1.48 / -1.60 / -1.66 / -2.01 / -1.83 / -1.26	0 of 18
GFDLNEYGIS	VIYADGMRTAYSDSVK	GDNAGTFDV	-0.15 / -0.15 / -0.19 / -0.07 / -0.55 / -0.15	0 of 18
GFDLNEYGIS	VIYADGSRTAYTDSVK	GNVAGTFDL	n.d. / -1.88 / n.d. / -1.49 / -0.67 / 1.30	0 of 18
GFDLNEYGIS	VIYADGVRTAYADNVK	GETAGTFDQ	-0.60 / -0.56 / -0.93 / -0.79 / -0.70 / -0.64	2 of 18 (1.31)
GFDLNEYGIS	VIYADGMRTMYADSVK	GQNAGTFDV	-0.19 / -0.33 / -0.57 / -0.79 / -0.84 / -0.34	0 of 18
GFDLNEYGIS	VIYADGRRTAYADDVK	GEVAGTFDQ	1.73 / 0.94 / 0.98 / 0.71 / 0.94 / 0.71	0 of 18
GFDLNEYGIS	VIYADGQRTFYADSVK	GEVAGTFDL	0.01 / -0.58 / -0.27 / -0.44 / -0.32 / 0.03	0 of 18
GFDLNEYGIS	VIYADGQRTAYADSVK	GNLAGTFDV	-0.41 / -0.27 / -0.43 / -0.66 / -0.70 / -0.69	2 of 18 (3.39)
GFDLDEYGIS	VIYADGVRKAYADSVK	GNVAGTFDI	-0.36 / 0.09 / -0.73 / -0.90 / 0.03 / -0.50	0 of 18
GFDLNEYGIS	VIYADGRRTAYADTVK	GNVAGTFDV	n.d. / n.d. / n.d. / n.d. / n.d. / n.d.	0 of 18
GFDLNEYGIS	VIYADGKRTYYADSVK	GENAGTFDI	-0.62 / -0.48 / -0.49 / -0.31 / -0.56 / -0.04	1 of 18 (1.34)
GFDLNEYGIS	VIYADGQRTAYADSVK	GETAGTFDT	-0.34 / -0.59 / -0.55 / -0.28 / 0.00 / -0.10	0 of 18
GFDLNEYGIS	VIYADGQRTAYADSVK	GNQAGTFDM	0.30 / -0.32 / -0.15 / -0.40 / -0.67 / -0.58	0 of 18
GFDINEYGIS	VIYADGMRTAYADSVK	GENAGTFDV	n.d. / n.d. / n.d. / n.d. / n.d. / n.d.	0 of 18
GFDLNEYGIS	VIYADGMRTAYTDDVK	GQNAGTFDV	-0.69 / -0.72 / -0.92 / -1.10 / -1.03 / -0.67	0 of 18

Background: pairings of all heavy chain designs with three empty control strains gave a value in 1% of cases (median 2.08, 5th percentile 0.84). Values in that range, when seen in few replicates, are hard to tell from nonspecific mating. For each scFv, signals with the empty controls are counted beside the result, with their mean in brackets.
In the paper, a design with two or fewer of six values counts as a poor binder.
Values of this round are not directly comparable with the first-round values of the same sequences.